{
  "source": "paper PMC10975748",
  "about": "(2024)",
  "binders": {"B1": {"name": "Cm39 (peptide)", "chain": "TFINHKCKSSSECLPACKAAIGRASGKCINSTCKCYY"}},
  "key": {"KCa3.1": {"target": "KCa3.1 (Homo sapiens, UniProt O15554)", "experiment": "patch-clamp electrophysiology"}, "KCa2.2": {"target": "KCa2.2 (Homo sapiens, UniProt Q9H2S1)", "experiment": "patch-clamp electrophysiology"}},
  "data": [
    {"binder": "B1", "values": [
      {"measurement": "Kd", "setting": "KCa3.1", "value": 59, "unit": "nM"},
      {"measurement": "Kd", "setting": "KCa2.2", "value": 575, "unit": "nM"}
    ]}
  ]
}
